Ki data for 3 molecules are collected here from BindingDB's records for 27364609 (Florida A&M University, 2016).

The chains behind the UniProt entries cited, without tags or fusion partners. A line that says so, or that is headed by a name, gives the form on record, which may keep a tag or linker.
UniProt P35462, with tags, fused parts or gaps: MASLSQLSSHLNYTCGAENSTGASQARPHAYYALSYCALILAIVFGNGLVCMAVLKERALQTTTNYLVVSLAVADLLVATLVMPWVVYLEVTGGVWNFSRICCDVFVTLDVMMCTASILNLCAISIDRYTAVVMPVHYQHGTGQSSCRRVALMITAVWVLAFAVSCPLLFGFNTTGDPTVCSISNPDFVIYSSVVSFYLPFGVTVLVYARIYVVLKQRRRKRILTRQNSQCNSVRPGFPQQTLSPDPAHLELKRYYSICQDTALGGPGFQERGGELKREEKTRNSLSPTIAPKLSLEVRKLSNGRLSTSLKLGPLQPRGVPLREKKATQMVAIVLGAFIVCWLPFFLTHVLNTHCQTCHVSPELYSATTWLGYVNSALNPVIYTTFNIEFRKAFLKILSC
UniProt P21917, whole entry: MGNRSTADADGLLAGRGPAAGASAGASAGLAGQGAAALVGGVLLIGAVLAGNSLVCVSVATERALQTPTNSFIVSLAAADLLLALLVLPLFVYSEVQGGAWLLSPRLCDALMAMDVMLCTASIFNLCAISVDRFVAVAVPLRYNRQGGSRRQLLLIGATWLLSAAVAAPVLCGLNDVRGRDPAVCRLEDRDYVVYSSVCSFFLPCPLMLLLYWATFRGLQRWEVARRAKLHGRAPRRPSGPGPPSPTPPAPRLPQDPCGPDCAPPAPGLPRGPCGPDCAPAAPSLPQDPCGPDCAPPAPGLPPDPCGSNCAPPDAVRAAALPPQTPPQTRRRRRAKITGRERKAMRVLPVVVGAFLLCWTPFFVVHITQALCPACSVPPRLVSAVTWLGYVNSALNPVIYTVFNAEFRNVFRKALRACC
UniProt P14416, whole entry: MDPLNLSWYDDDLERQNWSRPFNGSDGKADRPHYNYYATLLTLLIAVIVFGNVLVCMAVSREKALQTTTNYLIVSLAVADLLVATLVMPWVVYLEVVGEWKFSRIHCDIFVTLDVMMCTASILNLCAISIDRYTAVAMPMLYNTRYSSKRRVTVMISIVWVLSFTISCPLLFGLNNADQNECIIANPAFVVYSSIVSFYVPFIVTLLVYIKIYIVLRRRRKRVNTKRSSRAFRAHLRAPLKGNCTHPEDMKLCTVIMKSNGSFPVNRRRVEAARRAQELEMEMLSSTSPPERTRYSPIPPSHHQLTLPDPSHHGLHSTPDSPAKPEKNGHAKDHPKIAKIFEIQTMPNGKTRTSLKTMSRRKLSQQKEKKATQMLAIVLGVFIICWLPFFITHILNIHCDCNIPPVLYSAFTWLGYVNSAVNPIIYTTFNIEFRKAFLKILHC
UniProt P08908, whole entry: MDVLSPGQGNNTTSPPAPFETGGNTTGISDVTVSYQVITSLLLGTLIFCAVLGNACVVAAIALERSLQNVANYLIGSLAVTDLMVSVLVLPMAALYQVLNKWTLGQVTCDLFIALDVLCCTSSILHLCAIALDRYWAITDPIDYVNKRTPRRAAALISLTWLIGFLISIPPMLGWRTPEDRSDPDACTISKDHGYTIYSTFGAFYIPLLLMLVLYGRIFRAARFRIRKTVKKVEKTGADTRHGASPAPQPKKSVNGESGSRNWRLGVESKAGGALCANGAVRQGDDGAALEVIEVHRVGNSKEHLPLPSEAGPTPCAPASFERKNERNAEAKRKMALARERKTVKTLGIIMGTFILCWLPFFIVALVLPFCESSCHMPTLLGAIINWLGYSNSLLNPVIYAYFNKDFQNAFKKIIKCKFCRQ
UniProt P34969, whole entry: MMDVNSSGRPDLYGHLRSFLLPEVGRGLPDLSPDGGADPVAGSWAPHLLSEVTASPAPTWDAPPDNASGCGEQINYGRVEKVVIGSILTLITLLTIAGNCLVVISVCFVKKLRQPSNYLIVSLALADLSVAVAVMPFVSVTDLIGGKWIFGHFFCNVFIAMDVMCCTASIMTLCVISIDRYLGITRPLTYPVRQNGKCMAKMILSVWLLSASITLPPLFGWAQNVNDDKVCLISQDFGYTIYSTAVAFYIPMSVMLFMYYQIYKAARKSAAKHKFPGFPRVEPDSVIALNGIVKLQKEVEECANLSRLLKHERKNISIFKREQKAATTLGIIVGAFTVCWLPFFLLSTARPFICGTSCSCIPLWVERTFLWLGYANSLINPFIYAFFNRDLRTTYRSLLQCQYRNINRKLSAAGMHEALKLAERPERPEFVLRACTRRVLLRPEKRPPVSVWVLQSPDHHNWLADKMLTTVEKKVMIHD
UniProt P41595, whole entry: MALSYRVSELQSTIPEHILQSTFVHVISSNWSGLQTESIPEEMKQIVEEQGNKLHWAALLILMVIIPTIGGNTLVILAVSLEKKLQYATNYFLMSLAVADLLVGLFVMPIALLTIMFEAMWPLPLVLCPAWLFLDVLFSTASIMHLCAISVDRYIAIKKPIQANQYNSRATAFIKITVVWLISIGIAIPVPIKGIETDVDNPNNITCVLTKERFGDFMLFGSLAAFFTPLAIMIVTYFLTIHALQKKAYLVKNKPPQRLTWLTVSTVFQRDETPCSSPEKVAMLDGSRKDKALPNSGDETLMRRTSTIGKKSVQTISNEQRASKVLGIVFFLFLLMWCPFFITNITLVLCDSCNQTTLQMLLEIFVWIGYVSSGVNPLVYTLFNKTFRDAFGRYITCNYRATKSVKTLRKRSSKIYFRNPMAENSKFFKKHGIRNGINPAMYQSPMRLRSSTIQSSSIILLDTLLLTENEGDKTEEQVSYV
UniProt P31645, whole entry: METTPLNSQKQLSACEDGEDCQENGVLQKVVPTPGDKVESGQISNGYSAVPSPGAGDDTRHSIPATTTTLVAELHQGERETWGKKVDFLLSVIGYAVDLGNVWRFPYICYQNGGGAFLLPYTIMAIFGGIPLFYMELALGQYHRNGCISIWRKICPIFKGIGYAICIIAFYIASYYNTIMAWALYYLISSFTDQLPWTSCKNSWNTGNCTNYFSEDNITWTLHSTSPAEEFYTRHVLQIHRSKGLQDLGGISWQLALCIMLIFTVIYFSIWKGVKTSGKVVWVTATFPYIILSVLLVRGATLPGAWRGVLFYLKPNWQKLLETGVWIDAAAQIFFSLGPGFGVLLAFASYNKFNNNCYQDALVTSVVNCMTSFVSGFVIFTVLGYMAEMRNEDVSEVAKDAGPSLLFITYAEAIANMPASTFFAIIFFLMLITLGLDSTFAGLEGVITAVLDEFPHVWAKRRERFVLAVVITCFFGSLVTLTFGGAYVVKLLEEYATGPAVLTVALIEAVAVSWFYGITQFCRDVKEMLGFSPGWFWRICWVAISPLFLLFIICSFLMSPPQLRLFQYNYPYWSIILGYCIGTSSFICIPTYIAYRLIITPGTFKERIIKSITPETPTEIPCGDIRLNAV
UniProt P35367, whole entry: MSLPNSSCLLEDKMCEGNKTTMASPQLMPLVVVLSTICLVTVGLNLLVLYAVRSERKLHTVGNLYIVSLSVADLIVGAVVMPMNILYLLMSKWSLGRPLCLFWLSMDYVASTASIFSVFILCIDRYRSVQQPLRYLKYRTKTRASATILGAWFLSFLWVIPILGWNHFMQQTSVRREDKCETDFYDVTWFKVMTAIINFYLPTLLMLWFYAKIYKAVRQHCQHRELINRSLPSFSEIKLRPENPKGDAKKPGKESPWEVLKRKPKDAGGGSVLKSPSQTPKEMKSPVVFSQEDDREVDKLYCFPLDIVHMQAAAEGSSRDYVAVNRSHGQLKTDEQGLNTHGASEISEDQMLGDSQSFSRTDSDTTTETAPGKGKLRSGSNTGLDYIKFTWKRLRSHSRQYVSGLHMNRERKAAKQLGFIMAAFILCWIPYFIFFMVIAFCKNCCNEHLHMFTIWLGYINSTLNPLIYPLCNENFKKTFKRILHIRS

Only a part of the results on these compounds is given; other tests are left out.

For one test, the target named is D(3) dopamine receptor (Homo sapiens, UniProt P35462). Put plainly: Displacement of [3H]N-methylspiperone from human recombinant dopamine D3 receptor incubated for 1.5 hrs by microbeta scintillation counting method. In general terms: In a radioligand displacement assay an active substance lowers the binding of a labelled ligand.
The target in a further test is D(4) dopamine receptor (Homo sapiens, UniProt P21917). Put plainly: Displacement of [3H]N-methylspiperone from human recombinant dopamine D4 receptor incubated for 1.5 hrs by microbeta scintillation counting method.
The target of another test is D(2) dopamine receptor (Homo sapiens, UniProt P14416). Put plainly: Displacement of [3H]N-methylspiperone from human recombinant dopamine D2 receptor incubated for 1.5 hrs by microbeta scintillation counting method.
The target in test [1] is 5-hydroxytryptamine receptor 1A (Homo sapiens, UniProt P08908). Put plainly: Displacement of [3H]8-OH-DPAT from human recombinant 5HT1A receptor incubated for 1.5 hrs by microbeta scintillation counting method.
The target of test [2] is 5-hydroxytryptamine receptor 7 (Homo sapiens, UniProt P34969). Put plainly: Displacement of [3H]LSD from human recombinant 5HT7 receptor incubated for 1.5 hrs by microbeta scintillation counting method.
Test [3] addresses 5-hydroxytryptamine receptor 2B (Homo sapiens, UniProt P41595). Put plainly: Displacement of [3H]LSD from human recombinant 5HT2B receptor incubated for 1.5 hrs by microbeta scintillation counting method.
Test [4] concerns the target Sodium-dependent serotonin transporter (Homo sapiens, UniProt P31645). Put plainly: Displacement of [3H]Citalopram from human recombinant SERT incubated for 1.5 hrs by microbeta scintillation counting method.
Another test concerns the target Histamine H1 receptor (Homo sapiens, UniProt P35367). Put plainly: Displacement of [3H]Pyrilamine from human recombinant histamine H1 receptor incubated for 1.5 hrs by microbeta scintillation counting method.

On to `O=c1[nH]c2cc(Cl)ccc2n1C1CCN(CCCCc2nc3ccccc3s2)CC1`, for which the Ki – broadly, the equilibrium dissociation constant of an inhibitor or competing ligand from its target – at D(3) dopamine receptor was 162 nM; at D(4) dopamine receptor it was 676 nM; on D(2) dopamine receptor it was 214 nM.
In the case of `O=c1[nH]c2cc(Cl)ccc2n1C1CCN(CCCCc2c[nH]c3ccccc23)CC1`, the Ki at D(2) dopamine receptor came to 135 nM.
Regarding `O=c1[nH]c2cc(Cl)ccc2n1C1CCN(CCCCc2nc3ccccc3o2)CC1`, the Ki was 832 nM at D(4) dopamine receptor; 617 nM in test [1]; 316 nM in test [2]; 513 nM in test [3]; 389 nM in test [4]; 501 nM at Histamine H1 receptor.
